# In PubChem BioAssay AID1947 (The Scripps Research Institute Molecular Screening Center, 2009):
# This is a selection; strong and weak results do not stand in their true shares. Activity calls are given as the source filed them.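 How the source made its calls: active means inhibition above the screen mean inhibition plus 3 SD, computed separately per campaign (cut at about 18% in these data); inactive means the rest.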
# System: Fam108B (ABHD17B) serine hydrolase [Mus musculus]
# Assay: inhibition of Fam108B (ABHD17B) hydrolase – biochemical, fluorescence polarization, counter-screen for RBBP9 inhibitor project, primary screen (AID 1947);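 further: inhibitors lower polarization as less probe binds the enzyme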
# Details: recombinant Fam108B, FP-Rh probe fluorescence polarization; at 9.51 µM; active compounds read high
row,Structure (SMILES),inhibition
1,O=[N+]([O-])c1cc([N+](=O)[O-])c(-c2ccn[nH]2)s1,inactive: 1.29%
2,ClCCSc1nnc(-c2cccnc2)o1,inactive: -1.62%
3,CC(C)c1ccc(OP(=O)(Nc2ccccn2)Oc2ccccc2F)cc1 (centres undefined),inactive: 1.4%
4,Cc1ccc(OP(=O)(Nc2ccc([N+](=O)[O-])cn2)Oc2ccc(C)cc2)cc1,inactive: -2.32%
5,Cc1ccc2nc3c(c(C)c2c1)CC(C(Cl)Cl)S3 (centres undefined),inactive: -0.04%
6,C[As](=O)(O)c1cccc(C(=O)O)c1,inactive: 4.9%
7,O=[As](O)(c1ccc(O)cc1)c1ccccc1O,inactive: 1.42%
8,CCN(N=Nc1nonc1N)c1nonc1N,inactive: 0.74%
9,O=[N+]([O-])c1cc([N+](=O)[O-])c(CCN2CCOCC2)c([N+](=O)[O-])c1,active: 35.1%
10,Cc1cc(SC(NC(=O)c2ccc(F)cc2)C(Cl)(Cl)Cl)ncn1 (centres undefined),inactive: -1.13%
11,CCOP(=O)(Nc1ccccc1)OCC,inactive: -0.53%
12,Cc1ccc(NP(=O)(Oc2ccccc2F)Oc2ccccc2F)nc1,inactive: 0.84%
13,CN(C(=O)Cc1ccc(Cl)c(Cl)c1)[C@H]1CCCC[C@@H]1N1CCCC1,inactive: 6.91%
14,O=P(Nc1nc2ccc(Cl)cc2s1)(c1ccccc1)c1ccccc1,inactive: -1.73%
15,CC(=O)Nc1ccc([As](=O)(O)O)cc1,inactive: 0.07%
16,O=C(O)c1ccccc1[As](=O)(O)O,inactive: -0.44%
17,Oc1ccccc1CNc1ccccn1,inactive: 3.75%
18,O=C(NC(Sc1ccncn1)C(Cl)(Cl)Cl)c1ccccc1 (centres undefined),inactive: -0.18%
19,Cc1c2non([O-])c-2c(C)[n+](=O)[n+]1[O-],inactive: 3.2%
20,Nc1cc(N)c2nonc2c1[N+](=O)[O-],inactive: -3.3%
21,CC(C)CC(=O)NC(Sc1ccc(Cl)cc1)C(Cl)(Cl)Cl (centres undefined),inactive: 2.98%
22,CN1CCCC(OC(=O)C(c2ccccc2)c2ccccc2)C1 (centres undefined),inactive: -1.59%
23,Clc1ccc(Cl)c(NC2=NCC(CBr)S2)c1 (centres undefined),inactive: 0.47%
24,COc1ccccc1OP(=O)(Nc1ccc(C)cn1)Oc1ccccc1OC,inactive: 4.89%
25,Cc1ccc(OP(=O)(Nc2nccs2)Oc2ccc(C)cc2)cc1,inactive: 4.63%
26,CN(C(=O)Cc1ccc(Cl)c(Cl)c1)[C@H]1CCCC[C@H]1N1CCCC1,inactive: -3.73%
27,Cc1ccc(N/C(=N/P(=O)(N2CCOCC2)N2CCOCC2)N2CCOCC2)cc1,inactive: -0.13%
28,NC(=O)c1cc([N+](=O)[O-])cc([N+](=O)[O-])c1N,inactive: 3.42%
29,CC1CCN(C(=O)Oc2c(Cl)cc(Cl)c3cccnc23)CC1,inactive: -0.79%
